Measured values reported in PubChem BioAssay (NCI).
The entries are a selection whose mix differs from that of the whole data set. Some tests of the compounds listed are not included; inactive here does not mean inactive elsewhere.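 A percent growth of 40 corresponds to 60% growth inhibition; 0 means no net growth; -100 means all cells died. Active threshold: below 10.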 Calls of active or inactive are those of the source.

Tests used:
Assay in all cases: NCI-60 one-dose screen, 48 h (100 = growth as untreated, 0 = no growth, -100 = all killed)
Details in all cases: 10 µM
MOLT-4 leukemia = system: MOLT-4 leukemia
SR leukemia = system: SR leukemia
RPMI-8226 leukemia = system: RPMI-8226 leukemia
OVCAR-8 ovarian = system: OVCAR-8 ovarian
OVCAR-5 ovarian = system: OVCAR-5 ovarian
OVCAR-4 ovarian = system: OVCAR-4 ovarian
SK-OV-3 ovarian = system: SK-OV-3 ovarian
IGROV1 ovarian = system: IGROV1 ovarian
OVCAR-3 ovarian = system: OVCAR-3 ovarian
HS 578T breast = system: HS 578T breast
NCI/ADR-RES ovarian = system: NCI/ADR-RES ovarian
T-47D breast = system: T-47D breast
BT-549 breast = system: BT-549 breast
MDA-MB-435 melanoma = system: MDA-MB-435 melanoma
SW-620 colon = system: SW-620 colon
MCF7 breast = system: MCF7 breast
HCT-116 colon = system: HCT-116 colon
HCC-2998 colon = system: HCC-2998 colon
KM12 colon = system: KM12 colon

Measured: growth

CN(C)CCOC(=O)C(O)(c1ccccc1)c1ccccc1
inactive: MOLT-4 leukemia 49.9% | SR leukemia 77.6% | RPMI-8226 leukemia 118% | OVCAR-8 ovarian 107% | OVCAR-5 ovarian 102% | OVCAR-4 ovarian 112% | SK-OV-3 ovarian 119% | IGROV1 ovarian 85.8% | OVCAR-3 ovarian 111% | HS 578T breast 130% | NCI/ADR-RES ovarian 113% | T-47D breast 113% | BT-549 breast 112% | MDA-MB-435 melanoma 93.7% | SW-620 colon 114% | MCF7 breast 109% | HCT-116 colon 112% | HCC-2998 colon 117% | KM12 colon 112%

ClCCN(CCCl)Cc1ccc(Cl)c(Cl)c1
inactive: MOLT-4 leukemia 88.1% | SR leukemia 82.7% | RPMI-8226 leukemia 91.2% | OVCAR-8 ovarian 99.6% | OVCAR-5 ovarian 97.7% | OVCAR-4 ovarian 103% | SK-OV-3 ovarian 115% | IGROV1 ovarian 98.4% | OVCAR-3 ovarian 107% | NCI/ADR-RES ovarian 98% | T-47D breast 90.2% | BT-549 breast 107% | MDA-MB-435 melanoma 106% | SW-620 colon 102% | MCF7 breast 96.1% | HCT-116 colon 95.2% | HCC-2998 colon 98.4% | KM12 colon 98%

COc1ccc([N+](=O)[O-])cc1CN(CCCl)CCCl
inactive: MOLT-4 leukemia 89.3% | RPMI-8226 leukemia 100% | OVCAR-8 ovarian 106% | OVCAR-5 ovarian 112% | OVCAR-4 ovarian 97.6% | SK-OV-3 ovarian 113% | IGROV1 ovarian 82.8% | OVCAR-3 ovarian 103% | HS 578T breast 103% | NCI/ADR-RES ovarian 104% | T-47D breast 110% | BT-549 breast 103% | MDA-MB-435 melanoma 102% | SW-620 colon 80.4% | MCF7 breast 66.9% | HCT-116 colon 92.3% | HCC-2998 colon 91.5% | KM12 colon 103%

CCCN(CCCl)CCCl
inactive: MOLT-4 leukemia 103% | SR leukemia 86.5% | RPMI-8226 leukemia 102% | OVCAR-8 ovarian 98.3% | OVCAR-5 ovarian 99% | OVCAR-4 ovarian 109% | SK-OV-3 ovarian 111% | IGROV1 ovarian 92.7% | OVCAR-3 ovarian 117% | NCI/ADR-RES ovarian 119% | T-47D breast 102% | BT-549 breast 106% | MDA-MB-435 melanoma 102% | SW-620 colon 101% | MCF7 breast 91.2% | HCT-116 colon 104% | HCC-2998 colon 133% | KM12 colon 110%

CC(=O)CI
inactive: MOLT-4 leukemia 117% | SR leukemia 107% | RPMI-8226 leukemia 112% | OVCAR-8 ovarian 102% | OVCAR-4 ovarian 101% | SK-OV-3 ovarian 121% | IGROV1 ovarian 104% | OVCAR-3 ovarian 107% | HS 578T breast 109% | NCI/ADR-RES ovarian 108% | T-47D breast 101% | BT-549 breast 106% | MDA-MB-435 melanoma 103% | SW-620 colon 101% | MCF7 breast 95.8% | HCT-116 colon 101% | HCC-2998 colon 106% | KM12 colon 105%

ClCCCCCC(CCl)NCCCl (stereo not given)
inactive: MOLT-4 leukemia 53.4% | SR leukemia 27.4% | RPMI-8226 leukemia 103% | OVCAR-8 ovarian 83% | OVCAR-5 ovarian 123% | OVCAR-4 ovarian 96.8% | SK-OV-3 ovarian 105% | IGROV1 ovarian 90.7% | OVCAR-3 ovarian 103% | HS 578T breast 108% | NCI/ADR-RES ovarian 90.7% | T-47D breast 86.7% | BT-549 breast 104% | MDA-MB-435 melanoma 106% | SW-620 colon 90% | MCF7 breast 60.6% | HCT-116 colon 85.7% | HCC-2998 colon 78.3% | KM12 colon 94.8%

ClCCN(CCCl)C1c2ccccc2-c2ccccc21
inactive: MOLT-4 leukemia 52.2% | SR leukemia 48.3% | RPMI-8226 leukemia 85% | OVCAR-8 ovarian 86.3% | OVCAR-5 ovarian 98.4% | OVCAR-4 ovarian 95.3% | SK-OV-3 ovarian 88.3% | IGROV1 ovarian 73.3% | OVCAR-3 ovarian 95.3% | HS 578T breast 93.1% | NCI/ADR-RES ovarian 92% | T-47D breast 79.8% | BT-549 breast 100% | MDA-MB-435 melanoma 100% | SW-620 colon 85.3% | MCF7 breast 63.4% | HCT-116 colon 85.3% | HCC-2998 colon 90.2% | KM12 colon 98.7%

ClCCN(CCCl)Cc1ccsc1Br
inactive: MOLT-4 leukemia 33.5% | RPMI-8226 leukemia 82% | OVCAR-8 ovarian 77.6% | OVCAR-5 ovarian 97.6% | OVCAR-4 ovarian 100% | SK-OV-3 ovarian 96.8% | IGROV1 ovarian 58.6% | OVCAR-3 ovarian 92.8% | HS 578T breast 84% | NCI/ADR-RES ovarian 80% | T-47D breast 95.5% | BT-549 breast 100% | MDA-MB-435 melanoma 99.6% | SW-620 colon 58.8% | MCF7 breast 66.4% | HCT-116 colon 86.3% | HCC-2998 colon 80.2% | KM12 colon 95%
active: SR leukemia 6.72%

CC(C)(C)N(CCCl)CCCl
inactive: MOLT-4 leukemia 91.1% | SR leukemia 83.4% | RPMI-8226 leukemia 91.2% | OVCAR-8 ovarian 100% | OVCAR-5 ovarian 89.8% | OVCAR-4 ovarian 94.6% | SK-OV-3 ovarian 109% | IGROV1 ovarian 112% | OVCAR-3 ovarian 110% | NCI/ADR-RES ovarian 109% | T-47D breast 104% | BT-549 breast 113% | MDA-MB-435 melanoma 104% | SW-620 colon 98% | MCF7 breast 95.6% | HCT-116 colon 101% | HCC-2998 colon 106% | KM12 colon 119%

CC[N+](C)(C)Cc1cccc(Cc2ccccc2)c1OC(=O)N(C)C
inactive: MOLT-4 leukemia 97.8% | SR leukemia 90% | RPMI-8226 leukemia 103% | OVCAR-8 ovarian 111% | OVCAR-5 ovarian 103% | OVCAR-4 ovarian 108% | SK-OV-3 ovarian 128% | IGROV1 ovarian 95.4% | OVCAR-3 ovarian 104% | HS 578T breast 111% | NCI/ADR-RES ovarian 97.5% | T-47D breast 101% | BT-549 breast 104% | MDA-MB-435 melanoma 105% | SW-620 colon 103% | MCF7 breast 96.7% | HCT-116 colon 97.2% | HCC-2998 colon 103% | KM12 colon 99.9%

N#CC(C#N)=Cc1ccccc1Cl
inactive: RPMI-8226 leukemia 103% | OVCAR-8 ovarian 110% | OVCAR-5 ovarian 115% | OVCAR-4 ovarian 109% | SK-OV-3 ovarian 91.5% | OVCAR-3 ovarian 107% | HS 578T breast 128% | NCI/ADR-RES ovarian 104% | T-47D breast 97.7% | BT-549 breast 108% | MDA-MB-435 melanoma 112% | SW-620 colon 116% | MCF7 breast 95.5% | HCT-116 colon 103% | HCC-2998 colon 106% | KM12 colon 106%

CCOc1ccc([N+](=O)[O-])cc1CN(CCCl)CCCl
inactive: MOLT-4 leukemia 86.6% | SR leukemia 68.1% | RPMI-8226 leukemia 98.3% | OVCAR-8 ovarian 101% | OVCAR-5 ovarian 98.8% | OVCAR-4 ovarian 107% | SK-OV-3 ovarian 108% | IGROV1 ovarian 90.3% | OVCAR-3 ovarian 103% | HS 578T breast 95.3% | NCI/ADR-RES ovarian 95.8% | T-47D breast 103% | BT-549 breast 90.6% | MDA-MB-435 melanoma 106% | SW-620 colon 89.4% | MCF7 breast 85.8% | HCT-116 colon 94.1% | HCC-2998 colon 87.9% | KM12 colon 96.5%
